# Results as given in patent US5204327A, “Treatment of cerebral edema with ANP pharmaceutical compositions” (Ashi Kasei Kogyo Kabushiki Kaisha, priority 1988, dated 1993).
# How the values were obtained:
# cerebral edema = assay: Anti-cerebral edema activity, rat cerebral edema testing system (general statement); details: in vivo
# From the text: The anti-cerebral edema activity of the pharmaceutical composition of the present invention was confirmed by the rat cerebral edema testing system using the following two animal models:
# (1) the Tamura's experimental model for ischemic cerebral edema, the middle cerebral artery of which model is constricted, and
# (2) the cold injury model, which is generally used as an experimental model for vasogenic edema caused by the blood-brain barrier insufficiency.
# The anti-cerebral edema activity can be evaluated by determining the water content of a brain tissue, since the cerebral edema is defined by "a symptom defined as an excessive accumulation of water in a brain tissue (including the inside and the outside of the brain cells)". The water content of a brain tissue can be directly determined by the dry-wet method.
# [1] = tested on: vasogenic cerebral edema caused by cold injury; assay: Effect on experimental vasogenic cerebral edema (cold injury); type: in vivo, male Crj:CD (SD) rats; details: rats
# Procedure: Using 42 male Crj:CD (SD) rats weighing 300 to 400 g, model animals of vasogenic cerebral edema caused by cold injury were prepared according to the method of Naruse et al. (Brain and Nerve, 33 (6): 569-575 (1981)). (Administration method)
# Peptide (II) obtained in Reference Example 1 was diluted with a physiological saline so that the peptide concentration became […]. The solution containing the peptide was continuously administered to eleven rats through the tail vein thereof in an amount of […] of body weight so that the total dose of the administered peptide became 100 μg per kg of body weight, to thereby obtain a peptide (II)-administeredgroup.
# Peptide (III) was administered to eight rats in the same manner as described above except that peptide (III) was used instead of peptide (II), to thereby obtain a peptide (III)-administered group.
# As a control (solvent), 3 ml per kg of body weight of the physiological saline was administered to eleven rats in substantially the same manner as mentioned above, to thereby obtain a physiological saline-administered group.
# As a control for the peptide, an aqueous 10% w/v glycerol solution containing 5% w/v fructose and 0.9% w/v sodium chloride was administered to twelve rats so that the total volume of the administered solution became 10 ml per kg of body weight, to thereby obtain a glycerol-administered group.
# The administration of each of the peptide (II) solution, peptide (III) solution and physiological saline was started one hour before the making of cold injury and completed in 90 minutes. On the other hand, the administration of the glycerol solution was started 23 hours after the making of cold injury and completed in 30 minutes in accordance with the ordinary clinical method, so that the total volume of the administered glycerol solution became 10 ml/kg of body weight.
# 24 hours after the rats had been subjected to cold injury, rats were sacrificed under ether anesthesia. […]
# The water content of each of the hemispheres was measured in substantially the same manner as in Example 1. […]
# rats = assay: Acute toxicity in rats; type: in vivo, Crj:CD (SD) rats; details: single i.v. 0.5, 1.5 and 5.0 mg/kg
# Procedure: Peptide (II) having a purity of 98.3% which was obtained in Reference Example 1 was dissolved in a physiological saline to prepare three preparations having peptide (II) concentrations of 0.1 mg/ml, 0.3 mg/ml and 1.0 mg/ml, respectively. As a control, the physiological saline was used.
# 88 Crj:CD (SD) rats of 4 weeks old (including 44 male rats and 44 female rats) were purchased from Charles River Japan, Inc., Japan. 40 Rats of each sex (males weighing 116.3 to 138.0 g and females 114.4 to 130.2 g) which were healthy and in good conditions in respect of both the clinical signs and the body weight gain during the observation period for quarantine and acclimation (male: 6 days, female: 8 days) were selected from the purchased rats and used for the following experiment. The rats were divided at random into four groups each consisting of 10 male rats and 10 female rats. Three of the four groups are used for the treatment with peptide (II).
# Each of the above-prepared three test drug solutions containing peptide (II) at concentrations of 0.1 mg/ml, 0.3 mg/ml and 1.0 mg/ml, respectively, was individually administered at one time to the rats of the three groups at a dosage of 5 ml/kg of body weight. That is, the peptide was administered to the rats of the three groups at dosages of 0.5 mg/kg, 1.5 mg/kg and 5.0 mg/kg of body weight, respectively. To the rats of the remaining group, physiological saline was administered as a control at a dosage of 5 ml/kg of body weight. The administration of each of the test drug solutions and the physiological saline was conducted through the tail vein of each rat at an administration rate of 1 ml/min.
# The results were recorded.
# The amounts of the food supplied and the food remaining were measured twice a week by means of a balance, and the food consumption per day per animal was calculated.
# The body weight of each animal was measured three times a week.
# The animals were exsanguinated under ether anesthesia on the next day of the two-week observation period. Then, various organs and tissues of the animals were observed by gross autopsy.
# [2] = 24 hours after cold injury, peptide 100 μg/kg tail vein started one hour before injury, 90 min, glycerol solution 10 ml/kg started 23 hours after injury
compound,measurement,setting,value
CC[C@H](C)[C@@H]1NC(=O)[C@H](CCCNC(=N)N)NC(=O)[C@H](CC(=O)O)NC(=O)[C@H]([C@@H](C)CC)NC(=O)[C@H](CCCNC(=N)N)NC(=O)CNC(=O)CNC(=O)[C@H](Cc2ccccc2)NC(=O)[C@@H](NC(=O)[C@H](CO)NC(=O)[C@H](CO)NC(=O)[C@H](CCCNC(=N)N)NC(=O)[C@H](CCCNC(=N)N)NC(=O)[C@H](CC(C)C)NC(=O)[C@@H](N)CO)CSSC[C@@H](C(=O)N[C@@H](CC(N)=O)C(=O)N[C@@H](CO)C(=O)N[C@@H](Cc2ccccc2)C(=O)N[C@@H](CCCNC(=N)N)C(=O)N[C@@H](Cc2ccc(O)cc2)C(=O)O)NC(=O)CNC(=O)[C@H](CC(C)C)NC(=O)CNC(=O)[C@H](CO)NC(=O)[C@H](CCC(N)=O)NC(=O)[C@H](C)NC(=O)CNC1=O [Peptide (II)],anti-cerebral edema activity as compared to peptide (III),cerebral edema,relatively high
same,"Water content of brain tissue (the mean ± standard error), injured cerebral hemisphere",[1]; [2],80.44 ± 0.09
same,"Water content of brain tissue (the mean ± standard error), not injured cerebral hemisphere",[1]; [2],79.59 ± 0.08
same,"increase in water content of the injured cerebral hemisphere, compared to physiological saline-administered group",[1]; cold injury,markedly inhibited
same,Patho-anatomical examination,rats; gross autopsy after two-week observation,No remarkable change
same,Change in body weight,rats; two-week observation,No remarkable change
same,Clinical signs,rats; two-week observation,No remarkable change
same,Clinical signs: death of animals,rats; two-week observation,No dead animal
same,Food consumption,rats; two-week observation,No remarkable change
